Reference: PubChem BioAssay AID1996
In brackets after ≈: the same amount, converted by molar mass.

Details: buffer; pH 7.4; 200.0 µM

SMILES: COc1ccc(Cl)cc1NC(=O)c1cnccn1
- solubility kinetic: 3.3 µg/mL (≈ 12.5 µM)
